The test deals with human GPR40 (Homo sapiens, UniProt O14842). Nature of the test: Inositol Phosphate Turnover (IP1) Assay 3. Particulars: read-out: Inositol Phosphate Turnover Assay 3, EC50, HEK cells stably expressing human GPR40, tested form: Na salt. The protocol: Human and mouse GPR40 stable cell-lines were generated in CHO cells stably expressing NFAT BLA (Beta-lactamase). A human GPR40 stable cell-line was generated in HEK cells stably expressing the aequorin expressing reporter. The expression plasmids were transfected using lipofectamine (Life Technologies) following manufacturer's instructions. Stable cell-lines were generated following drug selection.
Inositol Phosphate Turnover (IP1) Assay 3:
The assay was performed in 384-well format. HEK cells stably expressing human GPR40 were plated at 7500 cells per well in growth medium (DMEM/10% fetal calf serum). Cell plates were then incubated 16 hours at 37 degrees in a 5% CO2 incubator.
Measurement of Inositol Phosphate Turnover (IP) was performed using the CisBio IP-One kit (Part number 62IPAPEB). After the 16 hour incubation, the growth media was removed by centrifugation using the BlueWasher (AusWasher GUI Ver. v1.0.1.8) Protocol #21—“Light Dry” and 10 ul of stimulation buffer (prepared as described in the kit) was added to each well. […] The plates were then read in a Perkin Elmer EnVision or equivalent reader able to measure FRET. […] Data is normalized to % activity using a reference compound and EC50s determined using a standard 4-parameter fit.

Protein sequences, listed by entry. Tags and fused reporters are not part of them.
UniProt O14842, whole entry: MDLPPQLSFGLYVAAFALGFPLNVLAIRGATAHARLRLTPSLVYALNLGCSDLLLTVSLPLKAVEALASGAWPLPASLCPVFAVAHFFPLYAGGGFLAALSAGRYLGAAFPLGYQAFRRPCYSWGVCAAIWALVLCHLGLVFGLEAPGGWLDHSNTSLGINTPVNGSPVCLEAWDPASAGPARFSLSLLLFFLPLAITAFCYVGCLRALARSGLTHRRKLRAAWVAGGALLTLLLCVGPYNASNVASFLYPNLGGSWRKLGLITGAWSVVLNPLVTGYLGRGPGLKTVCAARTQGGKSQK

For orientation: EC50 means the concentration at which the effect is half-maximal.

Regarding `COc1cc(-c2ccc([C@@H]3CCc4ccc([C@H](C5CC5)[C@H](C)C(=O)O)cc4O3)cc2CN(C)C2CCOC2)c(F)cn1` (single isomer, unassigned), the EC50 is 0.5 nM.

Values taken from patent publication US10968193B2, “Antidiabetic bicyclic compounds” (Merck Sharp & Dohme Corp., priority 2014, dated 2021).
